# From patent publication US20260098097A1
# Sequences of proteins named here, by UniProt entry; tags and fusion partners are left off. Residues count along the entry.
# UniProt P28908, 19-595: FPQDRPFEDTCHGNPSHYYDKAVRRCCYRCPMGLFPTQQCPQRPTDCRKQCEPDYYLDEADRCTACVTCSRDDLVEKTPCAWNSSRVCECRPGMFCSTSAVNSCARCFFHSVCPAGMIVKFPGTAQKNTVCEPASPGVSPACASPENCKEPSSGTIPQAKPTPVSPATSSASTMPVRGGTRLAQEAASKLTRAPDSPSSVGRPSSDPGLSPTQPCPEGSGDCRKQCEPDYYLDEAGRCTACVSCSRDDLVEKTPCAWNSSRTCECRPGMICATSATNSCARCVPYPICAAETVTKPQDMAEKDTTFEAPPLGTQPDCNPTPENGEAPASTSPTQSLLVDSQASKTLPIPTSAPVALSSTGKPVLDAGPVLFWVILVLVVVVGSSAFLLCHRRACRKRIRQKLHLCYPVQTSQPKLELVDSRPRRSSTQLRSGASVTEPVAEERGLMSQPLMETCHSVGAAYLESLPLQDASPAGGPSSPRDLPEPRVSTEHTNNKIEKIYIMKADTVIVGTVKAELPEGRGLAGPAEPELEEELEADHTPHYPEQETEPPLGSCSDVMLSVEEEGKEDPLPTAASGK
# How the values were obtained:
# [1] = target: human CD30 on human CD25+CCR4+CD30+ Hut102/6TG cells (human) (UniProt P28908); test: cell-based or functional assay
# [2] = target: human CD30 on human CD25+CCR4+CD30+ Hut102/6TG cells (human) (UniProt P28908); test: flow cytometry, Alexa Fluor 488-labeled binder on Hut102/6TG cells, saturation binding fit of MFI
substance,measurement,setting,value
anti-CD30 antibody-drug conjugate (brentuximab vedotin),inhibition of viability of Hut102/6TG cells (CellTiter-Glo Luminescent Cell Viability Assay),[1],52.1 nM
same,Kd,[2],2.22 nM
